Entries after “also recorded” stand apart in the source; their conditions may differ.
Legend:
[1] = system: E15 rat mesencephalic primary cultures; assay: cells; conditions: 20 h, read-out: total cell survival
6-OHDA-lesioned rats = conditions: rat, in vivo
[2] = system: TH+ dopamine neurons of E15 rat mesencephalic primary cultures
[3] = system: E15 rat mesencephalic primary cultures
[4] = system: E15 rat mesencephalic primary cultures; remark: listed apart in the source
[5] = system: transplanted embryonic rat ventral mesencephalic dopamine neurons; conditions: in vivo
[6] = system: TH+ dopamine neurons of E15 rat ventral mesencephalic cultures

SMILES: O=[N+]([O-])c1ccc(-c2nc(-c3ccc(F)cc3)c(-c3ccncc3)[nH]2)cc1 [PD 169316]
- viability at 1 µM [1]: 48%
- viability at 10 µM [1]: 80%
- methamphetamine-induced rotations (6-OHDA-lesioned rats): 0.07+/-0.09 rpm
- stopping of methamphetamine-induced rotations (6-OHDA-lesioned rats): only group to completely stop methamphetamine-induced rotations
- morphology of TH+ neurons [2]: restored healthy morphology
- protection of dopamine neurons from death by serum withdrawal [2]: highest and complete protection; also recorded: protected all TH+ neurons; also recorded: completely prevented dopamine cell death
- survival of TH+ neurons after serum withdrawal, dose dependence [2]: protected the TH+ cell population from cell death in a dose dependent manner
- survival of dopamine neurons in serum containing cultures [2]: no effects
- basal apoptosis in cultures supplemented with serum [3]: no effect
- rescue of cells from serum-withdrawal induced death [4]: unable to rescue cells
- number of surviving dopamine neurons (TH+ cells) compared to sham-pretreated transplants [5]: nearly doubled
- surviving dopamine neurons per transplant [5]: 3023+/-585
- anti-apoptotic effect in dopamine neurons after serum withdrawal [6]: fully blocked the increase in the apoptotic nuclear profiles
